Values of other authors, collected in patent US6916852B2, “Method for regulation of microvascular tone” (University of Tennessee Research Foundation, priority 2003, dated 2005).

Test system: cannabinoid receptors
Settings: in vivo; cited from earlier work

## Cc1c(C(=O)NN2CCCCC2)nn(-c2ccc(Cl)cc2Cl)c1-c1ccc(Cl)cc1 [SR141716A]
  effect on blood pressure (Kunos, U.S. Pat. No. 5,939,429): prevents anandamide-induced hypotension
